The record followed here is ChEMBL document CHEMBL5375970, “Discovery of Potent and Selective WDR5 Proteolysis Targeting Chimeras as Potential Therapeutics for Pancreatic Cancer” (J Med Chem, 2023).

The target of assay [1] is WD repeat-containing protein 5 (Homo sapiens, UniProt P61964).

On to `Cc1ncsc1-c1ccc(CNC(=O)[C@@H]2C[C@@H](O)CN2C(=O)[C@@H](NC(=O)CNC(=O)c2ccc(F)c(-c3ccc(N4C[C@@H](C)N(C)[C@@H](C)C4)c(NC(=O)c4c[nH]c(=O)cc4C(F)(F)F)c3)c2)C(C)(C)C)cc1`, for which the figures for the deltaH (in the assay listed under Homo sapiens; in assay [1]) were -2.96 kcal/mol and -4.24 kcal/mol, respectively.
